Test [1] deals with glutathione-S-transferase (GST) tagged LXRalpha LBD (ligand binding domain) (Homo sapiens, UniProt Q13133).
Test [2] has as its target glutathione-S-transferase (GST) tagged LXRbeta LBD (ligand binding domain) (Homo sapiens, UniProt P55055). The test can be described thus: LanthaScreen TR-FRET Liver X Receptor Coactivator Assay, LXR beta. In kind it is biochemical. On the technique in general: Time-resolved FRET reads energy transfer from a long-lived donor to a nearby acceptor.
Setting [3] is: efficacy (% Emax) in relation to reference dual agonist T0901317.

Chains of the proteins cited; added tags and fusions are not shown. Residues count along the entry.
UniProt Q13133, 209-447 limits assumed: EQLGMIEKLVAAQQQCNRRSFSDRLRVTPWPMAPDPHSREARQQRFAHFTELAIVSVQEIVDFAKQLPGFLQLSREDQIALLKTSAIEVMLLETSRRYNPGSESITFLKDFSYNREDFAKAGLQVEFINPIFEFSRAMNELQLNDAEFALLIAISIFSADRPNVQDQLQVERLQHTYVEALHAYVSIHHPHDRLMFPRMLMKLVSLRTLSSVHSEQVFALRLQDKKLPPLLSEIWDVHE
UniProt P55055, 222-460 limits assumed: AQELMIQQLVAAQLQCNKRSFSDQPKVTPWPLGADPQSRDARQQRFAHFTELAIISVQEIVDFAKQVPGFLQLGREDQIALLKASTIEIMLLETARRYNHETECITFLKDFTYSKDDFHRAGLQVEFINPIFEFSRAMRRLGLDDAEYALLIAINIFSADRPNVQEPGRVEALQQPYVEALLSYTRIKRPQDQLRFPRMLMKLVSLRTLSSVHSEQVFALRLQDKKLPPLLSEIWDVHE

From US11655216B2 (priority 2016, dated 2023) come the findings set out here.

As to `CN(C)C(=O)c1ccc(OCCCCC2CCN(C(=O)C3(c4ccccc4)CCCO3)CC2)cc1Cl` (single isomer, unassigned) [Example 3-5, (S or R)-2-chloro-N,N-dimethyl-4-(4-(1-(2-phenyl-tetrahydrofuran-2-carbonyl)piperidin-4-yl)butoxy)benzamide], in test [1] (setting [3]), the “LXR alpha actiivty at max dose” value was 17%. Also, the EC50 turned out to be 1370 nM in test [1] (read-out: LXR alpha IP, potency (Inflection Point), compound-induced co-activator recruitment, TR-FRET) and 169 nM in test [2] (read-out: LXR beta IP, potency (Inflection Point), compound-induced co-activator recruitment, TR-FRET). In test [2] (setting [3]), the “LXR beta actiivty at max dose” value is on record as 72%.
